Details: pH 7.4

| Substance | Permeability (PAMPA) |
| --- | --- |
| (2-(Benzo[d][1,3]dioxol-5-yl)-5-methoxyquinolin-3-yl)methanol [29b] | 644±20 10^−6 cm/s |
| (2-(Benzo[d][1,3]dioxol-5-yl)-7-methoxyquinolin-3-yl)methanol [29a] | 356±22 10^−6 cm/s |

From PMC2850272 (Bioorganic & medicinal chemistry, 2010)
